Data from US11179382B2, “Methods of reversing normal aging process and extending lifespan” (MyMD Pharmaceuticals (Florida), Inc., priority 2015, dated 2021).

By UniProt entry, the sequences of proteins in these tests, tags left out.
UniProt P21397, whole entry, species assumed: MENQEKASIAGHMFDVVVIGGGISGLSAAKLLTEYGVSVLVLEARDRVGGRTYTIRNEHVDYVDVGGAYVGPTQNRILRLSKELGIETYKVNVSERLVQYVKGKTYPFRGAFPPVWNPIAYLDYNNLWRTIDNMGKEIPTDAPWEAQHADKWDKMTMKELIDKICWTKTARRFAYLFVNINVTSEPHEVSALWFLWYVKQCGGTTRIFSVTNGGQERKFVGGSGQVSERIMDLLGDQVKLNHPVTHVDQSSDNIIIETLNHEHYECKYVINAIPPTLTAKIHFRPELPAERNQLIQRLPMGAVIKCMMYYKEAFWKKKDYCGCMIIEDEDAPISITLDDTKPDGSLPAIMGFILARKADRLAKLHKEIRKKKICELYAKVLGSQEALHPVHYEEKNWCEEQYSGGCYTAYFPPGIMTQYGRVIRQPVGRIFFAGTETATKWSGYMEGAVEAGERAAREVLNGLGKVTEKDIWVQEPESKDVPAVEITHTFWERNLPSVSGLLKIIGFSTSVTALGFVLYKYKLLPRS

Target: T1, MAO-A (Homo sapiens, UniProt P21397)
T1 construct: purchased
Assay: MAO-Glo luminescent assay, MAO-A inhibition
Type: biochemical
Settings: compared among isomyosmine, myosmine, anatabine, anabasine, nornicotine; clorgyline positive control
From the text: This example describes experiments for determining monoamine oxidase (MAO) inhibition for isomyosmine and other alkaloids. MAOs are enzymes located on the outer membrane of mitochondria and are involved in the catabolism of monoamine neurotransmitters. There are two well-characterized isoenzymes: MAO-A, which predominantly catabolizes serotonin and norepinephrine, and MAO-B, which preferentially catabolizes benzylamine and phenylethylamine. Dopamine and tyramine are metabolized by both isoforms.
To detect the activity of MAO, a luminescent method (MAO-Glo Assay kit, from Promega, Cat #V1401) was used. In this method, a MAO substrate (a derivative of beetle luciferin provided in the kit) is mixed with the compound to be tested (in this case, myosmine and control compounds). Then, the MAO enzymes (either A or B, purchased separately) are added to the mixture and incubated with the reaction for 1 hour at room temperature. The MAO enzymes, if not inhibited by the test compound, will convert the substrate into methyl ester luciferin. Finally, a luciferin detection reagent (provided by the kit) is added (20 minutes at room temperature) to stop the MAO reaction and convert methyl ester luciferin into D-luciferin. […] The luminescent signal is measured and recorded using a luminometer. […]

Q: With `C#CCN(C)CCCOc1ccc(Cl)cc1Cl` [clorgyline, reference compound] as the compound, how does the “inhibiting the enzymatic activity of MAO-A (result in words, FIG. 3)” value read?
A: The value was “greatly shifted leftward”.
